Biological target: Tubulin (Sus scrofa, UniProt P02550+P02554)
Experiment: Evaluation of the inhibition of tubulin polymerization (turbidimetry at 350 nm)
Settings: read-out: Tubulin IC50; concentration that inhibits the rate of polymerization by 50%; pig brain tubulin 10 μM

Protein sequences, listed by entry. Tags and fused reporters are not part of them.
UniProt P02550, whole entry: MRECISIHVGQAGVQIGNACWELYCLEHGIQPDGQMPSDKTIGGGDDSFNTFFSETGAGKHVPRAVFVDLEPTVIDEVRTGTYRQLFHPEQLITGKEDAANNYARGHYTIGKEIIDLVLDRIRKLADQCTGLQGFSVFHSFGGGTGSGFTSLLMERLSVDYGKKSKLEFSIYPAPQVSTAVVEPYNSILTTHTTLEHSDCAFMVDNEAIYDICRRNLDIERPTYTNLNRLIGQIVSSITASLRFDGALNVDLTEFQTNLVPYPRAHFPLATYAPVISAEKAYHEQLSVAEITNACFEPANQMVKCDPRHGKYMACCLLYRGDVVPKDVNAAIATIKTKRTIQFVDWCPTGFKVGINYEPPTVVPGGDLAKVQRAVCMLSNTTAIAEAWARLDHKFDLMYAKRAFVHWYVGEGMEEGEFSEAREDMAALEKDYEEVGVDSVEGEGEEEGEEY
UniProt P02554, whole entry: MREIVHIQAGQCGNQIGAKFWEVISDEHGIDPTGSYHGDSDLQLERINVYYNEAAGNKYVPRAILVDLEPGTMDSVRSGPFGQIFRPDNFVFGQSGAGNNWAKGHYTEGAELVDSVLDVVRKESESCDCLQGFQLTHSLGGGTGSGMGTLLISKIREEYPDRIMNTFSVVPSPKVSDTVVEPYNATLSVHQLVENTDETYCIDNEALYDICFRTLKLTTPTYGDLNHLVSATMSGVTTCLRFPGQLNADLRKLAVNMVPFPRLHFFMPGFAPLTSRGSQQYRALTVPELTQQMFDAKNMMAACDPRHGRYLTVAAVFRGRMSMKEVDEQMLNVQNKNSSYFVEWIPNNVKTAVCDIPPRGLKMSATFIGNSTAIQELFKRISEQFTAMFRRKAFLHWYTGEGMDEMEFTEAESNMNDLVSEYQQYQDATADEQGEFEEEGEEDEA

| SMILES | IC50 [µM] |
| --- | --- |
| O/N=C(/c1n[nH]c2c1C=CC(c1ccc(F)cc1)(c1ccc(F)cc1)C2)C1CC1 | 9 |
| O/N=C(\c1n[nH]c2c1C=CC(c1ccccc1)(c1ccc(F)cc1)C2)C1CC1 (single isomer, unassigned) | 0.8 |

— patent US7119115B2, “Indazole or indole derivatives, and use thereof in human medicine and more particularly in oncology” (Aventis Pharma S.A., priority 2001, dated 2006)
